Assay: Solubility and viscosity observations

High Molecular Weight PolyEthylene Glycol [HMW PEG]
solubility: relatively insoluble

Source: patent US20090186949A1, “Method for Treating Endothelial and Epithelial Cell Disorders by Administering High Molecular Weight PEG-Like Compounds” (THE UNIVERSITY OF CHICAGO, priority 2006, published 2009)
